Measurements published in patent publication US20220098203A1 (priority 2018, published 2022).

By UniProt entry, the sequences of proteins in these tests, tags left out.
UniProt P31153, whole entry: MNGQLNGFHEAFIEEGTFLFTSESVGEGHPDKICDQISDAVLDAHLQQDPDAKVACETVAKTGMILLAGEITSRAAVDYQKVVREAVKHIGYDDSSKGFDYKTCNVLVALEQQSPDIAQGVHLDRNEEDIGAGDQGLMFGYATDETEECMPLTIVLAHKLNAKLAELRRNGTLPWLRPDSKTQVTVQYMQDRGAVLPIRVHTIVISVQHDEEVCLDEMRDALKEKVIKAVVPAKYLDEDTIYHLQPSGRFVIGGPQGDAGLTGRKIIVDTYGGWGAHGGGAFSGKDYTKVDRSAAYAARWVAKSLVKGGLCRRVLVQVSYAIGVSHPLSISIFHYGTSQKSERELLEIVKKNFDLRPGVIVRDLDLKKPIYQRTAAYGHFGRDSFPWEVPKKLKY

Experiments:
[1] = target: MAT2A homodimer (Homo sapiens, UniProt P31153); assay: MAT2A biochemical assay (liberated phosphate, PiColorLock Gold); conditions: read-out: Enzyme Inhibition, Table 5a
[2] = tested on: SAM in HCT116 MTAP-deleted cells; assay: Cellular assay of target engagement (SAM), LC-MS/MS; conditions: read-out: Cell 72 h SAM Inhibition (MTAP −/−), Table 5a
[3] = tested on: HCT116 MTAP-/-; assay: Inhibition of cellular proliferation (Cell Titer Glo), HCT116 MTAP-/-; conditions: read-out: 4 Day Relative Growth Inhibition (MTAP −/−), Table 5a, 4 days
[4] = tested on: HCT116 MTAP+/+; assay: Inhibition of cellular proliferation (Cell Titer Glo), HCT116 MTAP+/+; conditions: read-out: 4 Day Relative Growth Inhibition (MTAP +/+), Table 5a, 4 days

SMILES | IC50 [1] [µM] | IC50 [2] [µM] | IC50 [3] [µM] | IC50 [4] [µM]
CCOc1ccc2c(c1)N(c1ccc(Cl)cc1)C(=O)N(c1ccc3nn(C)cc3c1)C2 | < 0.1 | 0.1 to 1 | 0.1 to 1 | > 1
Cn1cc2cc(N3Cc4ccc(NCC(F)(F)F)cc4N(c4ccc(Cl)cc4)C3=O)ccc2n1 | 0.1 to 1 | 0.1 to 1 | 0.1 to 1 | > 1
